In ChEMBL document CHEMBL1123431, “Nonquaternary cholinesterase reactivators. 4. Dialkylaminoalkyl thioesters of alpha-keto thiohydroximic acids as reactivators of ethyl methylphosphonyl- and 1,2,2-trimethylpropyl methylphosphonyl-acetylcholinesterase in vitro” (1986):

How the values were obtained:
[1] = Dissociation constant (pKa) (for oxime acid)
[2] = Partition coefficient (logD7.6); conditions: octanol/water, pH 7.6

Row | Structure (SMILES) | pKa [1] | logD [2]
1 | CN(C)CCS/C(=N\O)C(=O)c1cccc2ccccc12.Cl | 7.1 | 2.32
2 | C[N+](C)(C)CCS/C(=N\O)C(=O)c1ccc(Br)cc1.[I-] | 7.18 | -0.55
3 | C[N+](C)(C)CCS/C(=N\O)C(=O)c1ccc(F)cc1.[Cl-] | 7.36 | -1.55
4 | C[N+](C)(C)CCS/C(=N\O)C(=O)c1ccc(Cl)cc1.[Cl-] | 7.19 | -0.8
5 | CN(C)CCS/C(=N\O)C(=O)c1ccc(Cl)cc1.Cl | 7.57 | 1.74
6 | CN(C)CCS/C(=N\O)C(=O)c1ccc(Br)cc1.Cl | 7.36 | 1.7
7 | COc1ccc(C(=O)/C(=N/O)SCCN(C)C)cc1 | 7.88 | 1.07
8 | Cc1ccc(C(=O)/C(=N/O)SCCN(C)C)cc1.Cl | 7.76 | 1.52
9 | COc1ccc(C(=O)/C(=N/O)SCCCN(C)C)cc1.O=C(O)C(=O)O | – | 0.49
10 | CCN(CC)CCS/C(=N\O)C(=O)c1ccc(C#N)cc1.Cl | 7.02 | –
11 | CCCS/C(=N\O)C(=O)c1ccc(Br)cc1 | 8.45 | 3.38
12 | CC(C)N(CCS/C(=N\O)C(=O)c1ccc(Cl)cc1)C(C)C.Cl | 7.2 | –
13 | CCN(CC)CCS/C(=N\O)C(=O)c1ccc(OC)cc1 | 7.65 | 1.43
14 | CC[N+](C)(CC)CCS/C(=N\O)C(=O)c1ccc(Cl)cc1.[Cl-] | 7.17 | -0.42
15 | CC[N+](C)(CC)CCS/C(=N\O)C(=O)c1ccc(OC)cc1.[Cl-] | 7.7 | -1.6
16 | CCN(CC)CCS/C(=N\O)C(=O)c1ccc(Br)cc1.Cl | 7.2 | 2.41
17 | CC[N+](C)(CC)CCS/C(=N\O)C(=O)c1ccc(F)cc1.[Cl-] | 7.31 | -1.17
18 | CCN(CC)CCS/C(=N\O)C(=O)c1ccc(Cl)cc1.Cl | 7.42 | 1.97
19 | Cc1ccc(C(=O)/C(=N/O)SCC[N+](C)(C)C)cc1.[Cl-] | 7.57 | -1.44
20 | CC[N+](C)(CC)CCS/C(=N\O)C(=O)c1ccc(C#N)cc1.[Cl-] | 6.72 | –
21 | CN(C)CCS/C(=N\O)C(=O)c1ccc(F)cc1 | 7.54 | 1.15
22 | CN(C)CCCS/C(=N\O)C(=O)c1ccc(Br)cc1.O=C(O)C(=O)O | 7.41 | –
23 | COc1ccc(C(=O)/C(=N/O)SCC[N+](C)(C)C)cc1.[Cl-] | 7.71 | -1.96
